Data published in ChEMBL document CHEMBL5653606 (J Pharmacol Exp Ther, 2011).

Sequences of proteins named here, by UniProt entry; tags and fusion partners are left off.
UniProt O00519, whole entry: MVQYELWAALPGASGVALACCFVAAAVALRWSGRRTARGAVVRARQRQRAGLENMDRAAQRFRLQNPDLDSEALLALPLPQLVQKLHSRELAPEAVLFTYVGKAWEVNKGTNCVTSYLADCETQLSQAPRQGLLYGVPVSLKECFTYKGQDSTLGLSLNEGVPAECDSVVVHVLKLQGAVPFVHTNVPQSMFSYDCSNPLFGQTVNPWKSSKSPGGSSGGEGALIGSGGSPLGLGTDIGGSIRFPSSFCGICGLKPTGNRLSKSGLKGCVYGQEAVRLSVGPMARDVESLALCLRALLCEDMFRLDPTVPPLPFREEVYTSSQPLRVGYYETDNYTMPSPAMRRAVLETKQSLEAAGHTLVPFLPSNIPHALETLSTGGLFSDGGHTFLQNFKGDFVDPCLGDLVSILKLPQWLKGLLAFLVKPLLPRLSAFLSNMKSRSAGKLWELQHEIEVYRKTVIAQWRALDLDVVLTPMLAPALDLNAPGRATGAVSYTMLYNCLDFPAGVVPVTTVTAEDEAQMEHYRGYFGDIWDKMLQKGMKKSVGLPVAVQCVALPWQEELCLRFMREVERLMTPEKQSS
UniProt P97612, whole entry: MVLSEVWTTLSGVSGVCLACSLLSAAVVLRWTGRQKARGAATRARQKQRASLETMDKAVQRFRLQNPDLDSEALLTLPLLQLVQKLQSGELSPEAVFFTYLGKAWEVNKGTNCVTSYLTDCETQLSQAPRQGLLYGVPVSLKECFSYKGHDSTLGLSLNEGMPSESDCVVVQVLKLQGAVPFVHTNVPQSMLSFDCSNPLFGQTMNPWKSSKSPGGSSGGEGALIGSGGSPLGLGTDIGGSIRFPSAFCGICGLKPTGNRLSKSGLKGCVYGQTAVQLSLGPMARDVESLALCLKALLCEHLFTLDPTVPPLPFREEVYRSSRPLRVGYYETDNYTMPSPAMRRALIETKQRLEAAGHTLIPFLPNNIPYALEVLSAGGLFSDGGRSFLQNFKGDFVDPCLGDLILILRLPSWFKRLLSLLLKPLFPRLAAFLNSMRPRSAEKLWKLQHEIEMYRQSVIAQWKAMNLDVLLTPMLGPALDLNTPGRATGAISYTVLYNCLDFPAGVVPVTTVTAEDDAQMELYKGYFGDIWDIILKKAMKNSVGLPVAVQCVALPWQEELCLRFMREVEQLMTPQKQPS

Assays:
[1] = target: T1, Fatty-acid amide hydrolase 1 (Homo sapiens, UniProt O00519); test: Inhibition of human FAAH assessed as kinact/Ki ratio incubated for 15 min in presence of glutamate dehydrogenase by 384-well format microplate reader assay
How it was run: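 Purified recombinant human FAAH (E. coli-expressed, >95% pure by SDS-PAGE) in a glutamate dehydrogenase-coupled assay in 384-well format. Oleamide is the substrate: ammonia released on hydrolysis drives stoichiometric NAD⁺ formation, monitored spectrophotometrically at 340 nm on a microplate reader. The overall potency, k_inact/K_i, is derived from time-dependent inactivation.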

[2] = target: T1, Fatty-acid amide hydrolase 1; test: Inhibition of human FAAH assessed as kinact/Ki ratio in presence of glutamate dehydrogenase by 384-well format microplate reader assay
How it was run: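 Glutamate dehydrogenase-coupled assay in 384-well format, 50 μl final volume. NAD⁺ formed from ammonia released by oleamide hydrolysis, followed at 340 nm.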

[3] = target: Fatty-acid amide hydrolase 1 (Rattus norvegicus) (UniProt P97612); test: Inhibition of rat FAAH assessed as kinact/Ki ratio in presence of glutamate dehydrogenase by 384-well format microplate reader assay
How it was run: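 Purified recombinant FAAH (>95% pure), human or rat. Glutamate dehydrogenase-coupled assay in 384-well format, 50 μl final volume. NAD⁺ formed from ammonia released by oleamide hydrolysis, followed at 340 nm.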

- IC50 [1]: 0.0324 µM
- Ratio [2]: 40300 M⁻¹ s⁻¹
- Ratio [3]: 32400 M⁻¹ s⁻¹
SMILES: O=C(Nc1cccnn1)N1CCC(=Cc2cccc(Oc3ccc(C(F)(F)F)cn3)c2)CC1
